Protein sequences, listed by entry. Tags and fused reporters are not part of them.
UniProt P18825, whole entry L239R/S401I/R446P: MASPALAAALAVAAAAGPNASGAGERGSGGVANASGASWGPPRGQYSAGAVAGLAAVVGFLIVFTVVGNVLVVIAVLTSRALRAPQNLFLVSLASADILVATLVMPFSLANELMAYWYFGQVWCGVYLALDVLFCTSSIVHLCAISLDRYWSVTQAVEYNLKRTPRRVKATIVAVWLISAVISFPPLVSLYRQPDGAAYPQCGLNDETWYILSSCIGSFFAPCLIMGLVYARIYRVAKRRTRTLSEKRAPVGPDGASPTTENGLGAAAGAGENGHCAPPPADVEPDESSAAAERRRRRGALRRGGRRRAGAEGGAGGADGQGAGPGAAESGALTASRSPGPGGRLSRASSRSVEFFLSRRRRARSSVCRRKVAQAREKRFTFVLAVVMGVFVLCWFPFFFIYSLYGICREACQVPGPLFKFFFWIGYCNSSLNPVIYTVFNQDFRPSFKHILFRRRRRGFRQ

In patent US7572603B2, “Alpha-2 adrenergic receptor polymorphisms” (University of Cincinnati, priority 2000, dated 2009):

Target: wild-type alpha-2CAR (Homo sapiens, UniProt P18825, L239R/R446P/S401I)
Test: Inhibition of forskolin-stimulated adenylyl cyclase, CHO cell membranes
Assay type: biochemical
Parameters: expressed in transfected cells; membranes or intact cells
Conditions: higher expressing line, 1375 fmol/mg

CNC[C@H](O)c1ccc(O)c(O)c1 [epinephrine]
maximal inhibition of forskolin-stimulated adenylyl cyclase: 60±3%
